ERAP1 inh: inhibitors of human ERAP1 aminopeptidase; inhibition, % at 10.7 µM; recombinant ERAP1, Leu-AMC fluorescence, 60 min; Q9NZ08; actives 0.15% (n = 340,000);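 active = mean replicate inhibition of at least 30%, or all replicates individually reaching that 30% level; inactive = mean below 30% and not every replicate reaching it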
ARNT TACC3 PPI: disruptors of human ARNT/TACC3 interaction; Q9Y6A5; AlphaScreen His-ARNT PAS-B/GST-TACC3 binding, luminescence; TACC3 fragment carries E629A point mutation; inhibition, % at 9.99 µM; actives 0.66% (n = 390,000); AID 623870;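 active = mean inhibition of replicates at least 50% and at least half of replicates each reaching 50%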
E-selectin induc: E-selectin induction on HUVECs; activation, % at 7.58 µM; HUVEC E-selectin immunofluorescence imaging; normalized: neutral wells 0, TNF-alpha wells 100; P16581; actives 0.37% (n = 260,000);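 active = mean E-selectin-positive cell signal at least 10% of the positive control, reached in at least 60% of replicates, without over 20% cell loss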
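Read-out: % PE-positive cells | Test system: HUVEC | Doses: One compound dose added by pin transfer | Buffer or medium: EGM-2 over gelatin coat | Signal: Immunofluorescence imaging | Benchmarks: TNF-alpha, DMSO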
AF4-AF9 inh: blocks AF4 peptide binding to human AF9; P42568; AlphaScreen, biotin-AF4 peptide binding to FLAG-AF9; inhibition, % at 10 µM; actives 0.47% (n = 350,000); AID 651704;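 active = every replicate reaching a set inhibition limit, whatever the replicate mean, cut at about 25% in these data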
S100A4 inh HTS: inhibitors of human S100A4 binding to myosin IIA peptide; actives 0.14% (n = 360,000); AID 652163; inhibition, % at 10.7 µM; P26447; S100A4/TAMRA-MyoIIA peptide fluorescence polarization;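 active = mean inhibition of at least 70% across replicates, with every replicate also reaching that level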
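Material: human S100A4 monomer with TAMRA-labelled myosin IIA peptide; buffer or medium: HEPES pH 7.2 with CaCl2, KCl, NaCl, DTT, Triton; compound dosing: one concentration per compound; schedule: 5 min incubation before reading; benchmarks: neutral control DMSO, positive control TFP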
Yeast UUG start: alters start codon recognition fidelity in yeast; AID 602363; activity score, % at 18.7 µM; 350,000 tested, 0.13% active; S. cerevisiae UUG-firefly luciferase reporter, luminescence/redox ratio;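 active means replicate mean at a twofold rise or more, about +100% in these data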;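 further: firefly luciferase made from a UUG start codon reports start codon fidelity; reporter light over untreated wells divided by growth signal over untreated wells; some hits fall short of that in this replicate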
Numbers stand for hits. This is a sample that favours compounds with a hit; in the whole collection about 1.3% have one here.

For C[C@@H]1CN([C@@H](C)CO)C(=O)c2ccccc2-c2ccccc2CO[C@@H]1CN(C)Cc1ccc2c(c1)OCCN2C the results were ERAP1 inh inactive, ARNT TACC3 PPI inactive, E-selectin induc inactive, AF4-AF9 inh 37 and S100A4 inh HTS inactive.
COc1cccc(NC(=O)N(C)C[C@@H]2OCc3ccccc3-c3c(n(C)c4ccccc34)C(=O)N([C@@H](C)CO)C[C@@H]2C)c1 was read as ERAP1 inh inactive, ARNT TACC3 PPI inactive, E-selectin induc inactive, AF4-AF9 inh inactive and S100A4 inh HTS 97.
Screening C[C@H](CO)N1C[C@H](C)[C@H](CN(C)C(=O)Nc2ccnc(N3CCOCC3)c2)OCc2ccccc2-c2ccccc2C1=O returned ERAP1 inh inactive, ARNT TACC3 PPI 12, E-selectin induc inactive, AF4-AF9 inh inactive and S100A4 inh HTS inactive.
Screening C[C@H]1CN([C@@H](C)CO)C(=O)c2c(c3ccccc3n2C)-c2ccccc2CO[C@H]1CN(C)Cc1ccc2c(c1)OCCN2C returned ERAP1 inh inactive, E-selectin induc inactive, AF4-AF9 inh 44 and S100A4 inh HTS inactive.
Screening CC(C)C(=O)Nc1ccc2c(c1)C(=O)N(C)[C@H]1CC[C@H](CC(=O)NCc3ccc(F)cc3)O[C@@H]1CO2 returned ERAP1 inh inactive, ARNT TACC3 PPI inactive, E-selectin induc inactive, AF4-AF9 inh inactive, S100A4 inh HTS inactive and Yeast UUG start inactive.
Screening CN(C)C(=O)c1cccc(-c2ccc([C@@H]3[C@@H](C#N)N(C(=O)C4CCCCC4)[C@H]3CO)cc2)c1 returned ERAP1 inh inactive, ARNT TACC3 PPI inactive, E-selectin induc inactive, AF4-AF9 inh inactive, S100A4 inh HTS inactive and Yeast UUG start inactive.
`Cc1ccc(S(=O)(=O)N(C)C[C@@H]2Oc3c(NC(=O)c4cnccn4)cccc3C(=O)N([C@H](C)CO)C[C@H]2C)cc1` gave ERAP1 inh inactive, ARNT TACC3 PPI inactive, E-selectin induc inactive, AF4-AF9 inh inactive, S100A4 inh HTS inactive and Yeast UUG start inactive.
C[C@H](CO)N1C[C@H](C)[C@@H](CN(C)Cc2ccc3c(c2)OCCN3C)OCc2ccccc2-c2c(n(C)c3ccccc23)C1=O was read as ERAP1 inh inactive, E-selectin induc inactive, AF4-AF9 inh 31 and S100A4 inh HTS inactive.
Screening O=C1c2ccccc2-c2onc3c(N4CCN(CCO)CC4)cc(N4CCN(C(=O)c5ccco5)CC4)c1c23 returned ERAP1 inh inactive, ARNT TACC3 PPI inactive, AF4-AF9 inh 76, S100A4 inh HTS inactive and Yeast UUG start inactive.
Screening CCOC(=O)N1CCN(c2cc(NCCC(=O)O)c3c4c(onc24)-c2ccccc2C3=O)CC1 returned ARNT TACC3 PPI 58 and Yeast UUG start inactive.
CCNc1ccc2noc3c2c1C(=O)c1ccccc1-3 was read as ARNT TACC3 PPI inactive.
CN1CCN(c2cc(N3CCN(C(=O)c4ccco4)CC3)c3c4c(onc24)-c2ccccc2C3=O)CC1 was read as ARNT TACC3 PPI inactive and Yeast UUG start inactive.
For CCC(=O)Nc1ccc2c(c1)C(=O)N(C)C[C@H](OC)[C@@H](C)CN(Cc1ccccc1F)[C@@H](C)CO2 the results were ERAP1 inh inactive, ARNT TACC3 PPI inactive, E-selectin induc inactive, AF4-AF9 inh inactive, S100A4 inh HTS inactive and Yeast UUG start inactive.
Screening O=C(Nc1ccc(C2=NCCN2)cc1)c1ccc(C(=O)Nc2ccc(C3=NCCN3)cc2)c([N+](=O)[O-])c1 returned ERAP1 inh inactive, E-selectin induc inactive, AF4-AF9 inh 38 and S100A4 inh HTS inactive.
`COCC(=O)N(C)C[C@H]1Oc2ncc(C#Cc3ccccc3)cc2C(=O)N([C@H](C)CO)C[C@@H]1C` gave ERAP1 inh inactive, ARNT TACC3 PPI inactive, E-selectin induc inactive, AF4-AF9 inh inactive, S100A4 inh HTS inactive and Yeast UUG start inactive.
Screening COc1ccc(NC(=O)Nc2cccc3c2O[C@H](CN(C)Cc2ccc(C(=O)Nc4ccccc4N)cc2)[C@H](C)CN([C@H](C)CO)C3=O)cc1 returned ERAP1 inh inactive, ARNT TACC3 PPI inactive, E-selectin induc 34, AF4-AF9 inh inactive, S100A4 inh HTS inactive and Yeast UUG start inactive.

High-throughput results deposited in PubChem by Broad Institute.
